US20230126447A1, “OCULAR DRUG DEPOT FOR COMPLEMENT-MEDIATED DISORDERS” (priority 2020, published 2023)

Sequences of proteins named here, by UniProt entry; tags and fusion partners are left off. Residues count along the entry.
UniProt P00746, 26-253: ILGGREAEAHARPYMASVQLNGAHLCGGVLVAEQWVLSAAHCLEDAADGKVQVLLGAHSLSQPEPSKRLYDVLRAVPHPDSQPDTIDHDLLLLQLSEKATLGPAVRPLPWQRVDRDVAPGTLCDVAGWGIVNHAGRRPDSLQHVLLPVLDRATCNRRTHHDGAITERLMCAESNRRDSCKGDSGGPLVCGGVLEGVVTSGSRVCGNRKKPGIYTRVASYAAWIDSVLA

Target: CFD (Homo sapiens, UniProt P00746)
Test: Inhibitory effect on CFD
Type: biochemical

CC(=O)c1nn(CC(=O)N2[C@H](C(=O)Nc3nc(Br)ccc3C)C[C@@]3(C)C[C@@H]23)c2ccc(-c3cnc(C)nc3)cc12 [Compound 2, (1R,3S,5R)-2-(2-(3-acetyl-5-(2-methylpyrimidin-5-yl)-1H-indazol-1-yl)acetyl)-N-(6-bromo-3-methylpyridin-2-yl)-5-methyl-2-azabicyclo[3.1.0]hexane-3-carboxamide]
IC50: 26.8 nM
